Sequences of proteins named here, by UniProt entry; tags and fusion partners are left off. Residues count along the entry.
UniProt P46531, 19-2555 limits assumed: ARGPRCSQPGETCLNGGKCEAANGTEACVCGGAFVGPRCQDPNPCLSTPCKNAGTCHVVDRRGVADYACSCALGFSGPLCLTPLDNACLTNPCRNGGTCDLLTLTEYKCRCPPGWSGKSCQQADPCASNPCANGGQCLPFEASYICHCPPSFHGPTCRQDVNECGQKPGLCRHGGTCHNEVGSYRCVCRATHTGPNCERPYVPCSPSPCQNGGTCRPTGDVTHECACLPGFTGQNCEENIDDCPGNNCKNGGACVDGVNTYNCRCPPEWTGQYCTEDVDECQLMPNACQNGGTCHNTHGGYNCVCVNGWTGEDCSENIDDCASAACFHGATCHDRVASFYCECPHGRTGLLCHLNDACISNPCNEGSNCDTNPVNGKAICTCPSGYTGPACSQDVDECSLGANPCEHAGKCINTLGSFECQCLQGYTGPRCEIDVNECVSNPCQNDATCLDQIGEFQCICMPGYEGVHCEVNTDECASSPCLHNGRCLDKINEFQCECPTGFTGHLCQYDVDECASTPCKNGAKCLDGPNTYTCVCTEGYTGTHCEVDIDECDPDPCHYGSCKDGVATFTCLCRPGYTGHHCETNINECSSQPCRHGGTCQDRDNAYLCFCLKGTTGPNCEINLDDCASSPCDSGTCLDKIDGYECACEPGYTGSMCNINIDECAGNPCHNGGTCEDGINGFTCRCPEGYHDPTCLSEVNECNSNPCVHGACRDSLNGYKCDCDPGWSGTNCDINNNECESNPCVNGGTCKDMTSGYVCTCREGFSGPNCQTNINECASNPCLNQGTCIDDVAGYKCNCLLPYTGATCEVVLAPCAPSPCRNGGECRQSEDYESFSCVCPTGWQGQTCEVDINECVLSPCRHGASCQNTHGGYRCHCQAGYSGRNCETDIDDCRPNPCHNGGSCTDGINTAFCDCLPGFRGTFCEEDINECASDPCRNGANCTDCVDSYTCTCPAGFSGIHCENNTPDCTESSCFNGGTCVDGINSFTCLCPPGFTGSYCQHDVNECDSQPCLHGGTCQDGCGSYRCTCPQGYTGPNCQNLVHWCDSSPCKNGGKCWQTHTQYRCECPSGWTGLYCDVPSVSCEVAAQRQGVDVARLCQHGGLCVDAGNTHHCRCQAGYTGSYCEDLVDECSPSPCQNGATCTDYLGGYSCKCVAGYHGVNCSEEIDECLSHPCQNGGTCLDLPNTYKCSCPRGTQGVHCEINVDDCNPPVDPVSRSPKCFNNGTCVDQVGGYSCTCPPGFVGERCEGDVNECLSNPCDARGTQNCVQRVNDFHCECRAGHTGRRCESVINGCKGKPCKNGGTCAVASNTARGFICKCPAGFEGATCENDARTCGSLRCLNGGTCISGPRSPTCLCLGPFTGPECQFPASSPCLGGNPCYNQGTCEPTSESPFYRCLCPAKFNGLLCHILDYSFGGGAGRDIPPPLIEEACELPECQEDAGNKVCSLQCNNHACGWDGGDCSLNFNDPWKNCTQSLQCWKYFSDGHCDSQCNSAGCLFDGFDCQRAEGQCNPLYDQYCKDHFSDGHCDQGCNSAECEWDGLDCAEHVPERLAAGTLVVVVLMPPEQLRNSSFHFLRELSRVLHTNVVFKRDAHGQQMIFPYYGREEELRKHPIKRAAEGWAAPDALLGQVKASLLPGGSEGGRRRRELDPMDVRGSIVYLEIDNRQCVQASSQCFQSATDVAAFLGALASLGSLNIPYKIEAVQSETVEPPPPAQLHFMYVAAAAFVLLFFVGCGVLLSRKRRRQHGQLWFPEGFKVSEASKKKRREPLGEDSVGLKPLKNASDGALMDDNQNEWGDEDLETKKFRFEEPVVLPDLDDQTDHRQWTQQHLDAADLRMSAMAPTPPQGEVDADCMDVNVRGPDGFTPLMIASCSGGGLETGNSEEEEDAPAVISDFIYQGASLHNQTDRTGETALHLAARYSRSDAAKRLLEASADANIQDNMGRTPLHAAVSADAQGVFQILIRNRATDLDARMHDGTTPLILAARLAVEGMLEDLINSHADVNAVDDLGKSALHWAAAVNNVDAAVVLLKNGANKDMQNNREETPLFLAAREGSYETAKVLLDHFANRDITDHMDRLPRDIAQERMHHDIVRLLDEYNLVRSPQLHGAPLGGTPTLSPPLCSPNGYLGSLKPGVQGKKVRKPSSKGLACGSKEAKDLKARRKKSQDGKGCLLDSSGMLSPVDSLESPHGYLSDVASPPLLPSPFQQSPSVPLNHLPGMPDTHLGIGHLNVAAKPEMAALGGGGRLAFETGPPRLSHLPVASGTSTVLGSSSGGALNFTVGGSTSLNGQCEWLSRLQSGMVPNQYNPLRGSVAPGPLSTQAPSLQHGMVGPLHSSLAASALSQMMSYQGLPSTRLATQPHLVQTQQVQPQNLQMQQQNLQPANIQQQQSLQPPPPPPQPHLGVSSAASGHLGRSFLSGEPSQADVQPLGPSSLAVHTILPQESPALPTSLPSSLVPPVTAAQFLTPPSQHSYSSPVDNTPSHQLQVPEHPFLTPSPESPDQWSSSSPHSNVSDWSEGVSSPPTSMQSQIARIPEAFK

In patent publication US9273014B2 (dated 2016):

Biological target: human Notch 1 (Homo sapiens, UniProt P46531)
Conditions: read-out: Notch 1 (IC50); HeLa cells co-transfected with truncated Notch 1 and CBF1 luciferase reporter; 18 hours incubation

Structure (SMILES) | IC50 [nM]
Cc1cccc2c1NC(=O)[C@@H](NC(=O)[C@H](CCC(F)(F)F)[C@H](CCC(F)(F)F)C(N)=O)N=C2c1cccc(F)c1 [Example 1, (2R,3S)—N-((3S)-5-(3-Fluorophenyl)-9-methyl-2-oxo-2,3-dihydro-1H-1,4-benzodiazepin-3-yl)-2,3-bis(3,3,3-trifluoropropyl)succinamide] | 7.8
CCc1cccc2c1NC(=O)[C@@H](NC(=O)[C@H](CCC(F)(F)F)[C@H](CCC(F)(F)F)C(N)=O)N=C2c1cccc(Cl)c1 [Example 2, (2R,3S)—N-((3S)-5-(3-Chlorophenyl)-9-ethyl-2-oxo-2,3-dihydro-1H-1,4-benzodiazepin-3-yl)-2,3-bis(3,3,3-trifluoropropyl)succinamide] | 4.9
CC(C)c1cccc2c1NC(=O)[C@@H](NC(=O)[C@H](CCC(F)(F)F)[C@H](CCC(F)(F)F)C(N)=O)N=C2c1cccc(Cl)c1 [Example 3, (2R,3S)—N-((3S)-5-(3-Chlorophenyl)-9-isopropyl-2-oxo-2,3-dihydro-1H-1,4-benzodiazepin-3-yl)-2,3-bis(3,3,3-trifluoropropyl)succinamide] | 1.8
Cc1ccc(C2=N[C@H](NC(=O)[C@H](CCC(F)(F)F)[C@H](CCCC(F)(F)F)C(N)=O)C(=O)Nc3c(Cl)cccc32)cc1C [Example 4, (2R,3S)—N-(9-Chloro-5-(3,4-dimethylphenyl)-2-oxo-2,3-dihydro-1H-1,4-benzodiazepin-3-yl)-3-(4,4,4-trifluorobutyl)-2-(3,3,3-trifluoropropyl)succinamide] | 8.5
Cc1cc(C)cc(C2=N[C@H](NC(=O)[C@H](CCC(F)(F)F)[C@H](CCCC(F)(F)F)C(N)=O)C(=O)Nc3c(Cl)cccc32)c1 [Example 5, (2R,3S)—N-(9-Chloro-5-(3,5-dimethylphenyl)-2-oxo-2,3-dihydro-1H-1,4-benzodiazepin-3-yl)-3-(4,4,4-trifluorobutyl)-2-(3,3,3-trifluoropropyl)succinamide] | 2.3
CCc1cccc2c1NC(=O)[C@@H](NC(=O)[C@H](CCC(F)(F)F)[C@H](CCC(F)(F)F)C(N)=O)N=C2c1cccc(C)c1 [Example 6, (2R,3S)—N-((3S)-9-Ethyl-5-(3-methylphenyl)-2-oxo-2,3-dihydro-1H-1,4-benzodiazepin-3-yl)-2,3-bis(3,3,3-trifluoropropyl)succinamide] | 7.2
Cc1cccc2c1NC(=O)[C@@H](NC(=O)[C@H](CCC(F)(F)F)[C@H](CCCC(F)(F)F)C(N)=O)N=C2c1cccc(Cl)c1 [Example 8, (2R,3S)—N-((3S)-5-(3-Chlorophenyl)-9-methyl-2-oxo-2,3-dihydro-1H-1,4-benzodiazepin-3-yl)-3-(4,4,4-trifluorobutyl)-2-(3,3,3-trifluoropropyl)succinamide] | 6
Cc1cccc(C2=N[C@H](NC(=O)[C@H](CCC(F)(F)F)[C@H](CCC(F)(F)F)C(N)=O)C(=O)Nc3c2cccc3C(F)(F)F)c1 [Example 9, (2R,3S)—N-((3S)-5-(3-Methylphenyl)-2-oxo-9-(trifluoromethyl)-2,3-dihydro-1H-1,4-benzodiazepin-3-yl)-2,3-bis(3,3,3-trifluoropropyl)succinamide] | 3
Cc1cc(C)cc(C2=N[C@H](NC(=O)[C@H](CCC(F)(F)F)[C@H](CCC(F)(F)F)C(N)=O)C(=O)Nc3c(Cl)cccc32)c1 [Example 10, (2R,3S)—N-((3S)-9-Chloro-5-(3,5-dimethylphenyl)-2-oxo-2,3-dihydro-1H-1,4-benzodiazepin-3-yl)-2,3-bis(3,3,3-trifluoropropyl)succinamide] | 2.5
Cc1cccc(C2=N[C@H](NC(=O)[C@H](CCC(F)(F)F)[C@H](CCC(F)(F)F)C(N)=O)C(=O)Nc3c2cccc3C(C)C)c1 [Example 12, (2R,3S)—N-((3S)-9-Isopropyl-5-(3-methylphenyl)-2-oxo-2,3-dihydro-1H-1,4-benzodiazepin-3-yl)-2,3-bis(3,3,3-trifluoropropyl)succinamide] | 3
Cc1cccc(C2=N[C@H](NC(=O)[C@H](CCC(F)(F)F)[C@H](CCCC(F)(F)F)C(N)=O)C(=O)Nc3c(OC4CC4)cccc32)c1 [Example 14, (2R,3S)—N-((3S)-9-(Cyclopropyloxy)-5-(3-methylphenyl)-2-oxo-2,3-dihydro-1H-1,4-benzodiazepin-3-yl)-3-(4,4,4-trifluorobutyl)-2-(3,3,3-trifluoropropyl)succinamide] | 7.7
NC(=O)[C@@H](CCCC(F)(F)F)[C@@H](CCC(F)(F)F)C(=O)N[C@H]1N=C(c2ccccc2)c2cccc(OC3CC3)c2NC1=O [Example 16, (2R,3S)—N-((3S)-9-(Cyclopropyloxy)-2-oxo-5-phenyl-2,3-dihydro-1H-1,4-benzodiazepin-3-yl)-3-(4,4,4-trifluorobutyl)-2-(3,3,3-trifluoropropyl)succinamide] | 5.8
Cc1cccc(C2=N[C@H](NC(=O)[C@H](CCC(F)(F)F)[C@H](CCCC(F)(F)F)C(N)=O)C(=O)Nc3c(Cl)cccc32)c1 [Example 17, (2R,3S)—N-((3S)-9-Chloro-5-(3-methylphenyl)-2-oxo-2,3-dihydro-1H-1,4-benzodiazepin-3-yl)-3-(4,4,4-trifluorobutyl)-2-(3,3,3-trifluoropropyl)succinamide] | 5.7
Cc1cccc2c1NC(=O)[C@@H](NC(=O)[C@H](CCC(F)(F)F)[C@H](CCCC(F)(F)F)C(N)=O)N=C2c1cccc(C(F)(F)F)c1 [Example 18, (2R,3S)—N-((3S)-9-Methyl-2-oxo-5-(3-(trifluoromethyl)phenyl)-2,3-dihydro-1H-1,4-benzodiazepin-3-yl)-3-(4,4,4-trifluorobutyl)-2-(3,3,3-trifluoropropyl)succinamide] | 4.6
NC(=O)[C@@H](CCC(F)(F)F)[C@@H](CCC(F)(F)F)C(=O)N[C@H]1N=C(c2ccccc2)c2cccc(OC3CC3)c2NC1=O [Example 19, (2R,3S)—N-((3S)-9-(Cyclopropyloxy)-2-oxo-5-phenyl-2,3-dihydro-1H-1,4-benzodiazepin-3-yl)-2,3-bis(3,3,3-trifluoropropyl)succinamide] | 4.8
Cc1cccc2c1NC(=O)[C@@H](NC(=O)[C@H](CCC(F)(F)F)[C@H](CCC(F)(F)F)C(N)=O)N=C2c1cccc(C(F)(F)F)c1 [Example 20, (2R,3S)—N-((3S)-9-Methyl-2-oxo-5-(3-(trifluoromethyl)phenyl)-2,3-dihydro-1H-1,4-benzodiazepin-3-yl)-2,3-bis(3,3,3-trifluoropropyl)succinamide] | 1.6
Cc1ccccc1C1=N[C@H](NC(=O)[C@H](CCC(F)(F)F)[C@H](CCC(F)(F)F)C(N)=O)C(=O)Nc2c(Cl)cccc21 [Example 21, (2R,3S)—N-((3S)-9-Chloro-5-(2-methylphenyl)-2-oxo-2,3-dihydro-1H-1,4-benzodiazepin-3-yl)-2,3-bis(3,3,3-trifluoropropyl)succinamide] | 3.3
Cc1cccc2c1NC(=O)[C@@H](NC(=O)[C@H](CCC(F)(F)F)[C@H](CCC(F)(F)F)C(N)=O)N=C2c1ccc(F)cc1 [Example 22, (2R,3S)—N-((3S)-5-(4-Fluorophenyl)-9-methyl-2-oxo-2,3-dihydro-1H-1,4-benzodiazepin-3-yl)-2,3-bis(3,3,3-trifluoropropyl)succinamide] | 3.1
Cc1cccc2c1NC(=O)[C@@H](NC(=O)[C@H](CCC(F)(F)F)[C@H](CCC(F)(F)F)C(N)=O)N=C2c1ccccc1 [Example 23, (2R,3S)—N-((3S)-9-Methyl-2-oxo-5-phenyl-2,3-dihydro-1H-1,4-benzodiazepin-3-yl)-2,3-bis(3,3,3-trifluoropropyl)succinamide] | 4.7
NC(=O)[C@@H](CCC(F)(F)F)[C@@H](CCC(F)(F)F)C(=O)N[C@H]1N=C(c2ccccc2)c2cccc(C3CC3)c2NC1=O [Example 24, (2R,3S)—N-((3S)-9-Cyclopropyl-2-oxo-5-phenyl-2,3-dihydro-1H-1,4-benzodiazepin-3-yl)-2,3-bis(3,3,3-trifluoropropyl)succinamide] | 1.4
NC(=O)[C@@H](CCC(F)(F)F)[C@@H](CCC(F)(F)F)C(=O)N[C@H]1N=C(c2cccc(C3CC3)c2)c2cccc(Cl)c2NC1=O [Example 25, (2R,3S)—N-((3S)-9-Chloro-5-(3-cyclopropylphenyl)-2-oxo-2,3-dihydro-1H-1,4-benzodiazepin-3-yl)-2,3-bis(3,3,3-trifluoropropyl)succinamide] | 1.7
COc1cccc2c1NC(=O)[C@@H](NC(=O)[C@H](CCC(F)(F)F)[C@H](CCC(F)(F)F)C(N)=O)N=C2c1cccc(Cl)c1 [Example 26, (2R,3S)—N-((3S)-5-(3-Chlorophenyl)-9-methoxy-2-oxo-2,3-dihydro-1H-1,4-benzodiazepin-3-yl)-2,3-bis(3,3,3-trifluoropropyl)succinamide] | 3.7
Cc1cccc(C2=N[C@H](NC(=O)[C@H](CCC(F)(F)F)[C@H](CCC(F)(F)F)C(N)=O)C(=O)Nc3c(Cl)cccc32)c1 [Example 28, (2R,3S)—N-((3S)-9-Chloro-5-(3-methylphenyl)-2-oxo-2,3-dihydro-1H-1,4-benzodiazepin-3-yl)-2,3-bis(3,3,3-trifluoropropyl)succinamide] | 4.8
Cc1ccccc1C1=N[C@H](NC(=O)[C@H](CCC(F)(F)F)[C@H](CCC(F)(F)F)C(N)=O)C(=O)Nc2ccccc21 [Example 31, (2R,3S)—N-((3S)-5-(2-Methylphenyl)-2-oxo-2,3-dihydro-1H-1,4-benzodiazepin-3-yl)-2,3-bis(3,3,3-trifluoropropyl)succinamide] | 2.8
COc1cccc2c1NC(=O)[C@@H](NC(=O)[C@H](CCC(F)(F)F)[C@H](CCC(F)(F)F)C(N)=O)N=C2c1ccc(C(F)(F)F)cn1 [Example 33, (2R,3S)—N-((3S)-9-Methoxy-2-oxo-5-(5-(trifluoromethyl)-2-pyridinyl)-2,3-dihydro-1H-1,4-benzodiazepin-3-yl)-2,3-bis(3,3,3-trifluoropropyl)succinamide] | 4.3
Cc1ccc(C2=N[C@H](NC(=O)[C@H](CCC(F)(F)F)[C@H](CCC(F)(F)F)C(N)=O)C(=O)Nc3ccccc32)cc1 [Example 36, (2R,3S)—N-((3S)-5-(4-Methylphenyl)-2-oxo-2,3-dihydro-1H-1,4-benzodiazepin-3-yl)-2,3-bis(3,3,3-trifluoropropyl)succinamide] | 12.2
